Test results as given in patent US8354416B2 (Glaxo Group Limited, priority 2005, dated 2013).

test system: influx of neutrophils to the lung in LPS-challenged rats; test: Rat LPS neutrophilia model; assay type: in vivo; conditions: intratracheal, LPS aerosol 100 ug/ml, in at least one of the range of conditions tested, significance p<0.05
Procedure: Rat LPS Neutrophilia Model
The effect of compounds on the influx of neutrophils to the lung in LPS-challenged rats is evaluated as follows. The test compound is suspended in one of the following solutions: 0.5% tween 80/PBS, 0.5% tween 80/saline, 10% EtOH/saline (with pH adjusted to 2.0, or 8.0 with HCl, or unadjusted), Saline (pH 2.0, 6.5 or 8.0, 0.5% Tragacanth, 1% DMSO/20% Encapsin/Saline, or acidified 5% Tragacanth. The suspension process may be aided by the use of a glass homogenizer. For intratracheal administration, the animals are anesthetized with inhaled isoflurane and placed in a supine position, the trachea is intubated with a steel gavage needle (1.5 inch, 22 gauge, small ball) or a Penn-Century Microsprayer Aerosolizer (model IA-1B) and 200 ul of dosing solution is delivered. The animals are visually monitored during the recovery process, which typically occurs within two minutes. It is noted that the test compounds may be alternatively administered via the microsprayer in a dry powder blend with a suitable excipient, such as lactose.
Rats treated with compound or vehicle (15 min-24 hours pretreatment) are exposed to an LPS aerosol (100 ug/ml) for 15 min. Four hours later the rats are euthanized with pentobarbital (100 mg/kg, i.p.) and the airways are lavaged with 5 washes of 5 ml of phosphate buffered saline. The harvested cells are stained (Diffquick) and counted to determine total and differential cell data. […] Inhibition of neutrophil levels relative to no compound controls is calculated based on the differential counts.
The data is obtained as % inhibition using a particular concentration and pretreat time.

Row | SMILES | inhibition of neutrophilia (neutrophil levels in airway lavage relative to no compound controls)
1 | CCCNC(=O)c1ccc(C)c(-c2nc(NCCCN(CC)CC)nc3c2ccc(=O)n3-c2c(F)cccc2F)c1 [Example 122, 3-[2-{[3-(diethylamino)propyl]amino}-8-(2,6-difluorophenyl)-7-oxo-7,8-dihydropyrido[2,3-d]pyrimidin-4-yl]-4-methyl-N-propylbenzamide] | statistically nonsignificant inhibition of neutrophilia
2 | CCN(CC)CCCNc1nc(-c2cc(C(=O)NCC(C)C)ccc2C)c2ccc(=O)n(-c3c(F)cccc3F)c2n1 [Example 124, 3-[2-{[3-(diethylamino)propyl]amino}-8-(2,6-difluorophenyl)-7-oxo-7,8-dihydropyrido[2,3-d]pyrimidin-4-yl]-4-methyl-N-(2-methylpropyl)benzamide] | statistically significant inhibition of neutrophilia
3 | CCN(CC)CCCNc1nc(-c2cc(C(=O)NC3CCCC3)ccc2C)c2ccc(=O)n(-c3c(F)cccc3F)c2n1 [Example 125, N-cyclopentyl-3-[2-{[3-(diethylamino)propyl]amino}-8-(2,6-difluorophenyl)-7-oxo-7,8-dihydropyrido[2,3-d]pyrimidin-4-yl]-4-methylbenzamide] | statistically nonsignificant inhibition of neutrophilia
4 | CCN(CC)CCCNc1nc(-c2cc(C(=O)NCC(F)(F)F)ccc2C)c2ccc(=O)n(-c3c(F)cccc3F)c2n1 [Example 128, 3-[2-{[3-(diethylamino)propyl]amino}-8-(2,6-difluorophenyl)-7-oxo-7,8-dihydropyrido[2,3-d]pyrimidin-4-yl]-4-methyl-N-(2,2,2-trifluoroethyl)benzamide] | inactive
5 | CCNC(=O)c1ccc(C)c(-c2nc(NCCCN(CC)CC)nc3c2ccc(=O)n3-c2c(F)cccc2F)c1 [Example 129, 3-[2-{[3-(diethylamino)propyl]amino}-8-(2,6-difluorophenyl)-7-oxo-7,8-dihydropyrido[2,3-d]pyrimidin-4-yl]-N-ethyl-4-methylbenzamide] | statistically nonsignificant inhibition of neutrophilia
